Results taken from ChEMBL document CHEMBL4680210, “Discovery of 1,6-naphthyridinone-based MET kinase inhibitor bearing quinoline moiety as promising antitumor drug candidate” (Eur J Med Chem, 2020).

Chains of the proteins cited; added tags and fusions are not shown. Lines headed by an entry give the natural chain unless they say otherwise; changes in a name come on top.
UniProt P08581: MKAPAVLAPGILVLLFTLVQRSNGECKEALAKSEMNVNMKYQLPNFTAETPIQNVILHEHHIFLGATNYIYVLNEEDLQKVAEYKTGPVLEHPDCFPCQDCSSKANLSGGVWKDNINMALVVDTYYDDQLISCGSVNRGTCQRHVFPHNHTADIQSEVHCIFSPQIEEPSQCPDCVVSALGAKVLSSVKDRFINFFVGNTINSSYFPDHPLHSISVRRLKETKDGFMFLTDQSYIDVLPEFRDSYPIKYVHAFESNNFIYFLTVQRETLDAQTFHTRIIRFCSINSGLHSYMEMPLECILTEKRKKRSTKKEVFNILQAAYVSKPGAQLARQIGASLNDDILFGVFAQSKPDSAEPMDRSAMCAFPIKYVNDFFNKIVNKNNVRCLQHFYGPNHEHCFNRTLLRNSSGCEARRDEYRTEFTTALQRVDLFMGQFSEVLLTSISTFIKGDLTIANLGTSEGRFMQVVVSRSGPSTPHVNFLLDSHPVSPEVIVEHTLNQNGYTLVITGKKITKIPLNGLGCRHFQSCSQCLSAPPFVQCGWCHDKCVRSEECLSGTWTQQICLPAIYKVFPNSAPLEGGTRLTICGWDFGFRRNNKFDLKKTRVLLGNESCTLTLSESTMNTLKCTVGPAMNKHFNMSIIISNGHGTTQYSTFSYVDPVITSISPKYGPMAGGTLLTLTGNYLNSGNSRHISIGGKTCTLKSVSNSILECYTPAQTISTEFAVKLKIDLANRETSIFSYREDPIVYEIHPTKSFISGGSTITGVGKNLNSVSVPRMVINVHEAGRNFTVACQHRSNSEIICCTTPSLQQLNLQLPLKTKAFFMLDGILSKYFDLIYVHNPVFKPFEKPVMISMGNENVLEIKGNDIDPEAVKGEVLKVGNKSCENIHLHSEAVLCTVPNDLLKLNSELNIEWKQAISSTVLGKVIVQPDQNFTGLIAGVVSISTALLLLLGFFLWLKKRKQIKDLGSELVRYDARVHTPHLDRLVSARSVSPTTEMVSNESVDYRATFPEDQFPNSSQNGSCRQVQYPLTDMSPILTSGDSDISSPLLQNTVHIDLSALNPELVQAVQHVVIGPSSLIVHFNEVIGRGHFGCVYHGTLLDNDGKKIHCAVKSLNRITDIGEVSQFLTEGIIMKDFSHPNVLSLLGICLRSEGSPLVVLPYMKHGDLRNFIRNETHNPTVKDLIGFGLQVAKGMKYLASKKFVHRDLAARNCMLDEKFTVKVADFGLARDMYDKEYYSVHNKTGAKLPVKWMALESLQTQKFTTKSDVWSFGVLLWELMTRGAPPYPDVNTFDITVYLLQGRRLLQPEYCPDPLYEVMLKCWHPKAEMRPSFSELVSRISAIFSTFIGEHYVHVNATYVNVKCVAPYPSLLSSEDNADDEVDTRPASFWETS

Target: Hepatocyte growth factor receptor (Homo sapiens, UniProt P08581)

IC50: 6.8 nM
Compound: O=c1c(-c2ccc(F)cc2)c[nH]c2ccnc(Nc3ccc(Oc4ccnc5cc(OCCO)ccc45)c(F)c3)c12
